The results in this text go back to patent EP0998946A1, “Non-porphyrin compound for use as a diagnosticum and/or pharmaceutical” (K.U. LEUVEN RESEARCH & DEVELOPMENT, priority 1998, dated 2000).

The test system of data set [1] is mice. In words: Acute lethal toxicity (LD50) in mice.
Data set [2] relates to rats. Description: Acute lethal toxicity (LD50) in rats.

For “N,N'-Bis(diethylenetriamino penta-acetato)-4,4'-methylene bis(3-hydroxy-2-naphthalene carboxylic hydrazide), Gd-complex, sodium salt [ECIII-60]”, the “Interpolated LD50 (mmol/kg)” value in data set [1] (interpolated over the mice and rats dose groups, printed in the last (mice) line) was “(2.5 +5.0)/2 =3.8 mmol/kg0”. The “acute lethal toxicity (LD50)” value in data set [1] (mice) and in data set [2] was “about 3.8 mmol/kg” in each case.
